# Laboratory results published in PubChem BioAssay AID652083 (The Scripps Research Institute Molecular Screening Center, 2013).
# This is one part of the list. Active and inactive are the calls of the source.
# Tested on: Adrenergic alpha 2 (non-selective)
# Assay: PubChem AID 652083
# Settings: CEREP radioligand binding panel, % inhibition at 10 uM, hits give high values
structure (smiles),measurement,value
COC(=O)c1cc(Br)cnc1N1CCC(NC2CCCCC2)C(O)C1 (stereo unspecified),inhibition of specific binding,inactive: 1%
